Results from patent US20200140841A1.

Target: debrilase (Lucilia sericata)
Assay: cell-based or functional assay

half maximal inhibitory concentration (IC50) of debrilase activity (residual activity on Z-Gly-Gly-Arg-AMC, fluorometric, PBS pH 8, 37° C.): 0.076 µM
Substance: aprotinin from bovine lung (Sigma Aldrich) (from UniProt P00974 36-93)
